For five compounds, Kd results are on record in patent US20040242673A1.

This assay concerns the target human PDE6D (Homo sapiens, UniProt O43924).
By Kd is commonly meant a measure of binding affinity in units of concentration. Low values mean tighter binding, high ones weaker binding. In turn, `CC(=O)c1sc(-c2ccc(F)cc2)cc1NC(=O)c1cccs1` displayed a Kd of 0.567 µM.
Turning to `CC(=O)c1sc(-c2ccc(F)cc2)cc1NC(=O)CN1CCN(C(=O)c2ccc(C)cc2)CC1`, the Kd stood at 0.348 µM.
Regarding `CN(C(=O)c1ccc(-c2ccc(F)cc2)s1)c1ccccc1`, the Kd turned out to be 0.469 µM.
As to `CCc1sc(C(C)(C)C)cc1NC(=O)c1ccccc1`, the Kd came to 0.83 µM.
In turn, `O=C(Nc1ccccc1)c1ccc(-c2ccc(F)cc2)s1` showed a Kd of 1.68 µM.
